Measured values as given in ChEMBL document CHEMBL4725451, “Discovery of Tricyclic Xanthines as Agonists of the Cannabinoid-Activated Orphan G-Protein-Coupled Receptor GPR18” (ACS Med Chem Lett, 2020).

Sequences of proteins named here, by UniProt entry; tags and fusion partners are left off.
UniProt P34972, whole entry: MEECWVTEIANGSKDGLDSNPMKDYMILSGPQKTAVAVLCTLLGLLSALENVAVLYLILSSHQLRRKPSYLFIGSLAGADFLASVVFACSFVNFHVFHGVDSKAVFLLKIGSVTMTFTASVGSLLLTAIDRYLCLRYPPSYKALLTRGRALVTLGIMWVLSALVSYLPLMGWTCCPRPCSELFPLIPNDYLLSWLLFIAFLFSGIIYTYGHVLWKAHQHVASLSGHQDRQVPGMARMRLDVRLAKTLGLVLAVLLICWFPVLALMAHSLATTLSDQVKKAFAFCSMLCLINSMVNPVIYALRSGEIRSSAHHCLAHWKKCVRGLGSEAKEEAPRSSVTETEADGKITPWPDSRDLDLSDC

Biological target: Cannabinoid receptor 2 (Homo sapiens) (UniProt P34972)
Assay: Displacement of [3H]CP55,940 from human CB2 receptor expressed in CHO cell membranes at 10 uM after 2 hrs by liquid scintillation analysis relative to control
Format: cell-based
Conditions: filed as agonist

inhibition: 46%
SMILES: Cn1c(=O)c2c(nc3n2CCCCN3CCc2c[nH]c3ccccc23)n(C)c1=O
